This data set relates to HeLa cells. The note with it: HeLa cells pretreated with 10 nM AS-7 for two hours and continuous presence; TNF-alpha 2.5 to 20 nanograms per ml plus cycloheximide.

Consider `N#Cc1cccc(C(C(=O)NCC(c2ccccc2)c2ccccc2)N(CCc2c[nH]cn2)C(=O)c2ccccc2C(=O)c2ccccc2)c1` (stereo not shown) [AS-7], for which the “effect on the cytotoxicity evoked by TNF-alpha” value is recorded as “failed to block the cytotoxicity”.

The values are drawn from patent publication US20150038541A1, “COMPOSITION AND METHODS FOR CELL MODULATION” (APOSIGNAL BIOSCIENCE LLC, priority 2012, published 2015).
